Data from PMC12526156, “Optimization of the Macrocyclic Tetrapeptide [D-Trp]CJ-15,208 to Prevent Stress-Induced Relapse of Cocaine-Seeking Behavior” (Molecules, 2025).
Where a SMILES comes first, the peptide text is derived from it. [ ]: non-standard residue; d: D form. The star is where a group is joined. dPhe(3,5-F2) = N[C@H](Cc1cc(F)cc(F)c1)C(=O)O; dPhe(3-Me) = Cc1cccc(C[C@@H](N)C(=O)O)c1; dPhe(3-F) = N[C@H](Cc1cccc(F)c1)C(=O)O; For = O=C*

Protein sequences, listed by entry. Tags and fused reporters are not part of them.
UniProt P33534, whole entry: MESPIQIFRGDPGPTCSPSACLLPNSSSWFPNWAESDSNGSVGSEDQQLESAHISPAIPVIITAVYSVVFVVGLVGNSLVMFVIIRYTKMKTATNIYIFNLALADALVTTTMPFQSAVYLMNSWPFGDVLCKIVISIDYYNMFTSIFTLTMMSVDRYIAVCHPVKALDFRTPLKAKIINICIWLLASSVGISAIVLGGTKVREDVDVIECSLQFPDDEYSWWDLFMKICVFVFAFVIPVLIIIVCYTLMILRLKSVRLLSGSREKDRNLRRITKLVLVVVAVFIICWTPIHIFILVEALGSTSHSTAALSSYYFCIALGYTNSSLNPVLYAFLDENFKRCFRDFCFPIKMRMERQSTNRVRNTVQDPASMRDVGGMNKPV

Molecular target: KOR (Mus musculus, UniProt P33534)
Assay: 55 °C WWTW assay, antagonism of peripherally administered U50,488 (10 mg/kg, i.p.)
Settings: for KOR antagonism (reduction of KOR agonist-induced antinociception): 30 mg/kg, p.o.
[1] = U50,488 10 mg/kg i.p. 2.5 h later

| SMILES | KOR antagonism (reduction of KOR agonist-induced antinociception) [1] | antagonism of U50,488-mediated antinociception (10 nmol, i.c.v., U50,488 10 mg/kg i.p. 2.5 h later) | doses significantly antagonizing U50,488-mediated antinociception (2.5 h pretreatment, U50,488 10 mg/kg, i.p.) |
| --- | --- | --- | --- |
| O=C1N[C@H](Cc2ccccc2)C(=O)N[C@@H](Cc2ccccc2)C(=O)N2CCC[C@@H]2C(=O)N[C@H]1Cc1ccccc1 [Analog 4, cyclo[Phe-D-Pro-Phe-D-Phe]] (cyclo(F[dP]F[dF])) | robust KOR antagonist activity | – | – |
| Cc1cccc(C[C@H]2NC(=O)[C@H](Cc3ccccc3)NC(=O)[C@H]3CCCN3C(=O)[C@H](Cc3ccccc3)NC2=O)c1 [Analog 14, [D-Phe(m-Me)^4]CJ-15,208] (cyclo(F[dP]F[dPhe(3-Me)])) | robust KOR antagonist activity | – | – |
| O=C1N[C@H](Cc2cc(F)cc(F)c2)C(=O)N[C@@H](Cc2ccccc2)C(=O)N2CCC[C@@H]2C(=O)N[C@H]1Cc1ccccc1 [Analog 9, [D-Phe(3,5-F2)^4]CJ-15,208] (cyclo(F[dP]F[dPhe(3,5-F2)])) | – | robust KOR antagonist activity | – |
| O=Cn1cc(C[C@H]2NC(=O)[C@H](Cc3ccccc3)NC(=O)[C@H]3CCCN3C(=O)[C@H](Cc3ccccc3)NC2=O)c2ccccc21 [Analog 3, [D-Trp(formamide)]CJ-15,208] (cyclo(F[dP]F[dW](For))) | robust KOR antagonist activity | – | – |
| O=C1N[C@H](Cc2cccc(F)c2)C(=O)N[C@@H](Cc2ccccc2)C(=O)N2CCC[C@@H]2C(=O)N[C@H]1Cc1ccccc1 [Analog 6, [D-Phe(m-F)^4]CJ-15,208] (cyclo(F[dP]F[dPhe(3-F)])) | robust KOR antagonist activity | – | 30 mg/kg, p.o. |
